Reference: US8058462B2, “Ligand modified poly oxo-hydroxy metal ion materials, their uses and processes for their preparation” (Medical Research Council, priority 2007, dated 2011)

Assay: In vitro gastrointestinal digestion assay (simulated stomach and duodenum)
Type: physicochemical
Method: An amount of the solid ligand-modified poly oxo-hydroxy ferric iron materials or control iron materials namely ferrous sulphate, ferric chloride, or unmodified ferric oxo-hydroxide, equivalent to 60 mg elemental iron, were added to a synthetic gastric (stomach) solution (50 mL of 2 g/L NaCl, 0.15 M HCl and 0.3 mg/mL porcine pepsin) and incubated at 37° C. for 30 minutes with radial shaking. […] The mixture was incubated at 37° C. for 60 min with radial shaking. Homogeneous Aliquots (1 mL) were collected at different time points during the process and centrifuged at 13,000 rpm for 10 minutes to separate the aggregate and aquated phases. The supernatant was analysed for iron content by ICPOES. […] The mass of remaining material (i.e. the wet pellet) was recorded. Concentrated HNO3 was added to this wet pellet and the new mass recorded. […] The starting amount of iron was calculated from the iron in the wet pellet plus the iron in the supernatant. To differentiate between soluble iron and aquated particulate iron in the supernatant, at each time point, this fraction was also ultrafiltered (Vivaspin 3,000 Da molecular weight cut-off polyethersulfone membrane, Sartorius Stedium Biotech GmbH, Goettingen, Germany) and again analysed by ICPOES. […]

ferric pyrophosphate
disaggregation under gastric and intestinal conditions (in words): failed to disaggregate properly
